target: NAMPT (Homo sapiens (Human), UniProt P43490); assay: Biochemical inhibition assay (NAMPT enzymatic reaction, NMN quantified by mass spectrometry)

Amino acid sequences for entries named in this document (tags omitted). A change or cut given only in a name is not applied to a line headed by its entry.
UniProt P43490: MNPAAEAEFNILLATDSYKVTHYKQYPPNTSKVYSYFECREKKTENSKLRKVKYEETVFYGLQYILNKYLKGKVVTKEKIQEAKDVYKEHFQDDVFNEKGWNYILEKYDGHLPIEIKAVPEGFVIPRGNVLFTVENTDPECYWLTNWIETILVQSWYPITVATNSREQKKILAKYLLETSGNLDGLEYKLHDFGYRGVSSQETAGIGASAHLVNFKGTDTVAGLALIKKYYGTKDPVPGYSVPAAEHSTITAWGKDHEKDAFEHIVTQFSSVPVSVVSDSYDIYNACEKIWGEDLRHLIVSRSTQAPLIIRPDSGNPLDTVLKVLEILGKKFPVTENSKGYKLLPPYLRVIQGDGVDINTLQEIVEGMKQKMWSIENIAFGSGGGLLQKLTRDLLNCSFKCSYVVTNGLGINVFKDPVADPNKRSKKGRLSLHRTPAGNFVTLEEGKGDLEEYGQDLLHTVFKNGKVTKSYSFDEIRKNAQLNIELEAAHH

IC50 [nM]	SMILES
449	Cc1nonc1C(=O)N1CCC2(CC1)CC2CNC(=O)c1cc2ccncc2o1 (stereo not shown) [Example 118, N-[[6-(4-methyl-1,2,5-oxadiazole-3-carbonyl)-6-azaspiro[2.5]octan-2-yl]methyl]furo[2,3-c]pyridine-2-carboxamide]
188	Cc1ncccc1C(=O)N1CCC2(CC1)CC2CNC(=O)c1cc2ccncc2o1 (stereo not shown) [Example 119, N-[[6-(2-methylpyridine-3-carbonyl)-6-azaspiro[2.5]octan-2-yl]methyl]furo[2,3-c]pyridine-2-carboxamide]
207	Cc1ccncc1C(=O)N1CCC2(CC1)CC2CNC(=O)c1cc2ccncc2o1 (stereo not shown) [Example 120, N-[[6-(4-methylpyridine-3-carbonyl)-6-azaspiro[2.5]octan-2-yl]methyl]furo[2,3-c]pyridine-2-carboxamide]
308	Cc1cc(C(=O)N2CCC3(CC2)CC3CNC(=O)c2cc3ccncc3o2)ccn1 (stereo not shown) [Example 121, N-[[6-(2-methylpyridine-4-carbonyl)-6-azaspiro[2.5]octan-2-yl]methyl]furo[2,3-c]pyridine-2-carboxamide]
97.4	Cc1cnc(C(=O)N2CCC3(CC2)CC3CNC(=O)c2cc3ccncc3o2)cn1 (stereo not shown) [Example 122, N-[[6-(5-methylpyrazine-2-carbonyl)-6-azaspiro[2.5]octan-2-yl]methyl]furo[2,3-c]pyridine-2-carboxamide]
66.1	O=C(NCC1CC12CCN(C(=O)c1cc(C3CC3)n[nH]1)CC2)c1cc2ccncc2o1 (stereo not shown) [Example 123, N-[[6-(3-cyclopropyl-1H-pyrazole-5-carbonyl)-6-azaspiro[2.5]octan-2-yl]methyl]furo[2,3-c]pyridine-2-carboxamide]
151	CCn1ncc(C(=O)N2CCC3(CC2)CC3CNC(=O)c2cc3ccncc3o2)c1C (stereo not shown) [Example 124, N-[[6-(1-ethyl-5-methyl-pyrazole-4-carbonyl)-6-azaspiro[2.5]octan-2-yl]methyl]furo[2,3-c]pyridine-2-carboxamide]
95.5	Cc1noc(C)c1C(=O)N1CCC2(CC1)CC2CNC(=O)c1cc2ccncc2o1 (stereo not shown) [Example 125, N-[[6-(3,5-dimethylisoxazole-4-carbonyl)-6-azaspiro[2.5]octan-2-yl]methyl]furo[2,3-c]pyridine-2-carboxamide]
273	CCn1cc(C(=O)N2CCC3(CC2)CC3CNC(=O)c2cc3ccncc3o2)cn1 (stereo not shown) [Example 126, N-[[6-(1-ethylpyrazole-4-carbonyl)-6-azaspiro[2.5]octan-2-yl]methyl]furo[2,3-c]pyridine-2-carboxamide]
269	N#Cc1ccc(C(=O)N2CCC3(CC2)CC3CNC(=O)c2cc3ccncc3o2)cn1 (stereo not shown) [Example 127, N-[[6-(6-cyanopyridine-3-carbonyl)-6-azaspiro[2.5]octan-2-yl]methyl]furo[2,3-c]pyridine-2-carboxamide]
91.4	Cc1nc(C)c(C(=O)N2CCC3(CC2)CC3CNC(=O)c2cc3ccncc3o2)o1 (stereo not shown) [Example 128, N-[[6-(2,4-dimethyloxazole-5-carbonyl)-6-azaspiro[2.5]octan-2-yl]methyl]furo[2,3-c]pyridine-2-carboxamide]
100	O=C(NCC1CC12CCN(C(=O)c1ccnc(N3CCOCC3)c1)CC2)c1cc2ccncc2o1 (stereo not shown) [Example 129, N-[[6-(2-morpholinopyridine-4-carbonyl)-6-azaspiro[2.5]octan-2-yl]methyl]furo[2,3-c]pyridine-2-carboxamide]
43.2	Cn1cc(-c2ccno2)c(C(=O)N2CCC3(CC2)CC3CNC(=O)c2cc3ccncc3o2)n1 (stereo not shown) [Example 132, N-[[6-(4-isoxazol-5-yl-1-methyl-pyrazole-3-carbonyl)-6-azaspiro[2.5]octan-2-yl]methyl]furo[2,3-c]pyridine-2-carboxamide]
194	CC(=O)Nc1cc(C(=O)N2CCC3(CC2)CC3CNC(=O)c2cc3ccncc3o2)ccn1 (stereo not shown) [Example 133, N-[[6-(2-acetamidopyridine-4-carbonyl)-6-azaspiro[2.5]octan-2-yl]methyl]furo[2,3-c]pyridine-2-carboxamide]
47.7	O=C(NCC1CC12CCN(C(=O)c1c[nH]nc1-n1cnnn1)CC2)c1cc2ccncc2o1 (stereo not shown) [Example 134, N-[[6-[3-(tetrazol-1-yl)-1H-pyrazole-4-carbonyl]-6-azaspiro[2.5]octan-2-yl]methyl]furo[2,3-c]pyridine-2-carboxamide]

Second part, the molecule before the results:

SMILES	IC50 [nM]
CS(=O)(=O)c1ccc(C(=O)N2CCC3(CC2)CC3CNC(=O)c2cc3ccncc3o2)cc1 (stereo not shown) [Example 93, N-[[6-(4-methylsulfonylbenzoyl)-6-azaspiro[2.5]octan-2-yl]methyl]furo[2,3-c]pyridine-2-carboxamide]	475
NC(=O)Nc1ccc(C(=O)N2CCC3(CC2)CC3CNC(=O)c2cc3ccncc3o2)cc1 (stereo not shown) [Example 94, N-[[6-(4-ureidobenzoyl)-6-azaspiro[2.5]octan-2-yl]methyl]furo[2,3-c]pyridine-2-carboxamide]	70.6
CC(=O)N1CCN(CC(=O)N2CCC3(CC2)CC3CNC(=O)c2cc3ccncc3o2)CC1 (stereo not shown) [Example 95, N-[[6-[2-(4-acetylpiperazin-1-yl)acetyl]-6-azaspiro[2.5]octan-2-yl]methyl]furo[2,3-c]pyridine-2-carboxamide]	426
O=C(NCC1CC12CCN(C(=O)c1ccncc1)CC2)c1cc2ccncc2o1 (stereo not shown) [Example 97, N-[[6-(pyridine-4-carbonyl)-6-azaspiro[2.5]octan-2-yl]methyl]furo[2,3-c]pyridine-2-carboxamide]	421
O=C(NCC1CC12CCN(C(=O)c1ccccn1)CC2)c1cc2ccncc2o1 (stereo not shown) [Example 98, N-[[6-(pyridine-2-carbonyl)-6-azaspiro[2.5]octan-2-yl]methyl]furo[2,3-c]pyridine-2-carboxamide]	504
O=C(NCC1CC12CCN(C(=O)c1cocn1)CC2)c1cc2ccncc2o1 (stereo not shown) [Example 99, N-[[6-(oxazole-4-carbonyl)-6-azaspiro[2.5]octan-2-yl]methyl]furo[2,3-c]pyridine-2-carboxamide]	826
O=C(NCC1CC12CCN(C(=O)c1nc[nH]n1)CC2)c1cc2ccncc2o1 (stereo not shown) [Example 100, N-[[6-(1H-1,2,4-triazole-3-carbonyl)-6-azaspiro[2.5]octan-2-yl]methyl]furo[2,3-c]pyridine-2-carboxamide]	462
O=C(NCC1CC12CCN(C(=O)c1c[nH]cn1)CC2)c1cc2ccncc2o1 (stereo not shown) [Example 101, N-[[6-(1H-imidazole-4-carbonyl)-6-azaspiro[2.5]octan-2-yl]methyl]furo[2,3-c]pyridine-2-carboxamide]	625
O=C(NCC1CC12CCN(C(=O)c1ccncn1)CC2)c1cc2ccncc2o1 (stereo not shown) [Example 102, N-[[6-(pyrimidine-4-carbonyl)-6-azaspiro[2.5]octan-2-yl]methyl]furo[2,3-c]pyridine-2-carboxamide]	1210
O=C(NCC1CC12CCN(C(=O)c1cccnc1)CC2)c1cc2ccncc2o1 (stereo not shown) [Example 103, N-[[6-(pyridine-3-carbonyl)-6-azaspiro[2.5]octan-2-yl]methyl]furo[2,3-c]pyridine-2-carboxamide]	440
O=C(NCC1CC12CCN(C(=O)c1cc[nH]n1)CC2)c1cc2ccncc2o1 (stereo not shown) [Example 104, N-[[6-(1H-pyrazole-3-carbonyl)-6-azaspiro[2.5]octan-2-yl]methyl]furo[2,3-c]pyridine-2-carboxamide]	2920
Cn1cnc(C(=O)N2CCC3(CC2)CC3CNC(=O)c2cc3ccncc3o2)c1 (stereo not shown) [Example 105, N-[[6-(1-methylimidazole-4-carbonyl)-6-azaspiro[2.5]octan-2-yl]methyl]furo[2,3-c]pyridine-2-carboxamide]	246
Cc1n[nH]cc1C(=O)N1CCC2(CC1)CC2CNC(=O)c1cc2ccncc2o1 (stereo not shown) [Example 106, N-[[6-(3-methyl-1H-pyrazole-4-carbonyl)-6-azaspiro[2.5]octan-2-yl]methyl]furo[2,3-c]pyridine-2-carboxamide]	396
Cn1nccc1C(=O)N1CCC2(CC1)CC2CNC(=O)c1cc2ccncc2o1 (stereo not shown) [Example 107, N-[[6-(2-methylpyrazole-3-carbonyl)-6-azaspiro[2.5]octan-2-yl]methyl]furo[2,3-c]pyridine-2-carboxamide]	372
Cc1cc(C(=O)N2CCC3(CC2)CC3CNC(=O)c2cc3ccncc3o2)n[nH]1 (stereo not shown) [Example 108, N-[[6-(5-methyl-1H-pyrazole-3-carbonyl)-6-azaspiro[2.5]octan-2-yl]methyl]furo[2,3-c]pyridine-2-carboxamide]	216
Cn1ccc(C(=O)N2CCC3(CC2)CC3CNC(=O)c2cc3ccncc3o2)n1 (stereo not shown) [Example 109, N-[[6-(1-methylpyrazole-3-carbonyl)-6-azaspiro[2.5]octan-2-yl]methyl]furo[2,3-c]pyridine-2-carboxamide]	99.3
O=C(NCC1CC12CCN(C(=O)c1cccnn1)CC2)c1cc2ccncc2o1 (stereo not shown) [Example 110, N-[[6-(pyridazine-3-carbonyl)-6-azaspiro[2.5]octan-2-yl]methyl]furo[2,3-c]pyridine-2-carboxamide]	861
O=C(NCC1CC12CCN(C(=O)c1cnccn1)CC2)c1cc2ccncc2o1 (stereo not shown) [Example 112, N-[[6-(pyrazine-2-carbonyl)-6-azaspiro[2.5]octan-2-yl]methyl]furo[2,3-c]pyridine-2-carboxamide]	417
O=C(NCC1CC12CCN(C(=O)c1ccnnc1)CC2)c1cc2ccncc2o1 (stereo not shown) [Example 113, N-[[6-(pyridazine-4-carbonyl)-6-azaspiro[2.5]octan-2-yl]methyl]furo[2,3-c]pyridine-2-carboxamide]	877
Cn1cc(C(=O)N2CCC3(CC2)CC3CNC(=O)c2cc3ccncc3o2)cn1 (stereo not shown) [Example 114, N-[[6-(1-methylpyrazole-4-carbonyl)-6-azaspiro[2.5]octan-2-yl]methyl]furo[2,3-c]pyridine-2-carboxamide]	325
Cc1cc(C(=O)N2CCC3(CC2)CC3CNC(=O)c2cc3ccncc3o2)nn1C (stereo not shown) [Example 115, N-[[6-(1,5-dimethylpyrazole-3-carbonyl)-6-azaspiro[2.5]octan-2-yl]methyl]furo[2,3-c]pyridine-2-carboxamide]	49.9
Cc1cc(C(=O)N2CCC3(CC2)CC3CNC(=O)c2cc3ccncc3o2)no1 (stereo not shown) [Example 117, N-[[6-(5-methylisoxazole-3-carbonyl)-6-azaspiro[2.5]octan-2-yl]methyl]furo[2,3-c]pyridine-2-carboxamide]	422
